Data set [1] has as its system P388 (murine leukemia) cell lines and a P388 cell line selected for resistance to doxorubicin. The following applies: resistant P388 (MDR; p-glycoprotein) vs P388; MTT.
Data set [2] relates to MCF7 (human breast cancer) cell lines and a MCF7 cell line selected for resistance to doxorubicin. The following applies: resistant MCF7 (MDR; p-glycoprotein) vs MCF7; clonogenic.

For the molecule `COc1cccc2c1C(=O)c1c(O)c3c(c(O)c1C2=O)C[C@@](O)(C(C)=O)C[C@@H]3O[C@H]1C[C@H](N)[C@H](O)[C@H](C)O1` [Daunorubicin, daunorubicin], the “LC50 increase in resistant cell line” value in data set [1] and in data set [2] was 2 log units in each case.

(Values after patent publication US20100204263A1, “METHOD OF TREATING MULTIDRUG RESISTANT CANCERS” (priority 2007, published 2010).)
